# Source: PubChem BioAssay AID828 (The Scripps Research Institute Molecular Screening Center, 2007)
# Protein sequences, listed by entry. Tags and fused reporters are not part of them.
# UniProt O43603, whole entry: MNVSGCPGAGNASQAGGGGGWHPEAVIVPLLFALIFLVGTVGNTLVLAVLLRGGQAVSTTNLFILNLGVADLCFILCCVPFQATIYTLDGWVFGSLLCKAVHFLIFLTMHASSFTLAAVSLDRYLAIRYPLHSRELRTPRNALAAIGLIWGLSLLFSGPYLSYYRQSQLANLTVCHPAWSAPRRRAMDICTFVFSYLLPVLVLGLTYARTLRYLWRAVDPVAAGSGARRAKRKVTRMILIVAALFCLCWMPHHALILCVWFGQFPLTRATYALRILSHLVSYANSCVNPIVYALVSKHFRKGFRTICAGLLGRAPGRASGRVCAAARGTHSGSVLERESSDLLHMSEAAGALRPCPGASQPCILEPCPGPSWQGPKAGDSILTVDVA
# The list shows a part of the results, in another mix than the full data. Calls of active or inactive are those of the source. Rule as the data show it: active = inhibition above about 27%; inactive = the rest.
# Target: Galanin receptor type 2 (Homo sapiens) (UniProt O43603)
# Assay: GALR2 antagonists in receptor-expressing cells, primary screen (AID 828);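 also: cells stimulated with galanin 1-16 at roughly its EC80; 0% = agonist challenge control and 100% = basal control without agonist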
# Details: antagonist mode, at 4 µM, hits give high values
row,Compound,inhibition
1,Cc1nc2ccc3ccccc3c2s1.O=[N+]([O-])c1cc([N+](=O)[O-])c(O)c([N+](=O)[O-])c1,inactive: -1.24%
2,COc1ccccc1OP(C)(=O)Nc1c(C)cccc1C (stereo not given),inactive: -4.44%
3,CN1CCCCC1COC(=O)C1(O)c2ccccc2CCc2ccccc21 (stereo not given),inactive: 3.1%
4,CP(=O)(Nc1ccc(SC(F)(F)F)cc1)Oc1ccccc1 (stereo not given),inactive: 6.59%
5,CC1=NCCc2c1[nH]c1ccccc21.O=[N+]([O-])c1cc([N+](=O)[O-])c(O)c([N+](=O)[O-])c1,inactive: 13.5%
6,Cc1cc(C)cc(OP(C)(=O)Nc2ccc(C)cc2C)c1 (stereo not given),inactive: -4.69%
7,CCOC(=O)c1ccc(NP(C)(=O)Oc2cc(C)cc(C)c2)cc1 (stereo not given),inactive: -5.17%
8,Cc1cc(C)cc(OP(C)(=O)Nc2ccccn2)c1 (stereo not given),inactive: 19.8%
9,Cc1ccc(C)c(NP(C)(=O)Oc2ccccc2)c1 (stereo not given),inactive: 11.5%
10,CC(C)(C)c1ccc(OP(C)(=O)Nc2ccc(SC(F)(F)F)cc2)cc1 (stereo not given),inactive: 9.29%
11,CCOC(=O)c1ccc(NP(C)(=O)Oc2ccccc2)cc1 (stereo not given),inactive: 0.06%
12,COc1ccccc1OP(C)(=O)Nc1ccc(C)cc1 (stereo not given),inactive: -3.44%
13,Cc1ccc(NP(C)(=O)Oc2ccccc2)c(C)c1 (stereo not given),inactive: 11.1%
14,COc1ccc(OP(C)(=O)Nc2cccc(F)c2)cc1 (stereo not given),inactive: 17.6%
15,CP(=S)(Nn1cnnc1)Oc1ccccc1 (stereo not given),inactive: -19.9%
16,CP(=O)(Nc1ccccc1Br)Oc1ccccc1 (stereo not given),inactive: -0.67%
17,Cc1cccc(C)c1OP(C)(=O)Nc1ccc(SC(F)(F)F)cc1 (stereo not given),inactive: -13.1%
18,CP(=O)(NC(=O)Nc1ccccc1)Oc1ccccc1 (stereo not given),inactive: 1.16%
19,Cc1cc(C)cc(OP(C)(=O)Nc2ccc(SC(F)(F)F)cc2)c1 (stereo not given),inactive: -14.6%
20,CCOP(C)(=S)SCC(=O)NC(C)C(=O)O (stereo not given),inactive: -2.8%
21,CCOC(=O)c1ccc(NP(C)(=O)Oc2ccc(OC)cc2)cc1 (stereo not given),inactive: -1.36%
22,CP(=O)(Nc1ccccn1)Oc1ccc(Cl)cc1 (stereo not given),inactive: -16.9%
23,CCN(CC)CC(O)COC(=O)C(O)(c1ccccc1)C1CCCCC1 (stereo not given),inactive: 2.19%
24,COc1ccc(OP(C)(=O)Nc2ccc(Br)cc2)cc1 (stereo not given),inactive: -8.27%
25,CP(=O)(Oc1ccccc1)N1CCOC1=O (stereo not given),inactive: -0.54%

row,Compound,inhibition
1,COc1ccccc1OP(C)(=O)Nc1c(C)n(C)n(-c2ccccc2)c1=O (stereo not given),inactive: 0.32%
2,CP(=O)(Nc1ccc(Cl)cc1)Oc1ccc(F)cc1 (stereo not given),inactive: 10.5%
3,CC(C)(C)c1ccc(OP(C)(=O)O)cc1,inactive: 9.71%
4,CP(=O)(OC12CC3CC(CC(C3)C1)C2)OC12CC3CC(CC(C3)C1)C2,inactive: -6.71%
5,CCOC(=O)c1ccc(NP(C)(=O)Oc2ccc(Cl)cc2)cc1 (stereo not given),inactive: -7.01%
6,COc1ccc(OP(C)(=O)Nc2ccccc2Br)cc1 (stereo not given),inactive: 2.01%
7,COc1ccccc1OP(C)(=O)Nc1ccc(C)c(C)c1 (stereo not given),inactive: 12.1%
8,Cc1nc2ccc3ccccc3c2o1.O=[N+]([O-])c1cc([N+](=O)[O-])c(O)c([N+](=O)[O-])c1,inactive: 1.27%
9,CN(C)CCOC(=O)C(O)(c1ccccc1)C1CCCC1 (stereo not given),inactive: -4.28%
10,COc1ccc(OP(C)(=O)Nc2ccccn2)cc1 (stereo not given),inactive: -11%
11,Cc1c(NP(C)(=O)Oc2ccc(C(C)C)cc2)c(=O)n(-c2ccccc2)n1C (stereo not given),inactive: 0.07%
12,CCc1ccc(OP(C)(=O)O)cc1,inactive: 4.75%
13,CP(=O)(Nc1ccccn1)Oc1ccccc1 (stereo not given),inactive: -5.32%
14,COc1ccccc1OP(C)(=O)Nc1ccc(C)cc1C (stereo not given),inactive: 4.34%
15,CC(C)c1ccc(OP(C)(=O)Nc2ccc(SC(F)(F)F)cc2)cc1 (stereo not given),inactive: -8.63%
16,CP(=O)(Nc1ccccc1F)Oc1ccccc1 (stereo not given),inactive: 9.26%
17,O=C(OCCN1CCN(CCOCc2ccccc2)CC1)C(O)(c1ccccc1)c1ccccc1,inactive: -7.62%
18,CCOC(=O)c1ccc(NP(C)(=O)Oc2ccc(F)cc2)cc1 (stereo not given),inactive: -6.78%
19,CCN(CC)CCCOC(=O)C(O)(c1ccccc1)C1CCCCC1 (stereo not given),inactive: 12.4%
20,CP(=O)(Nc1ccccc1)Oc1ccc(F)cc1 (stereo not given),inactive: 5.5%
21,COc1ccc(OP(C)(=O)Nc2cccc(Br)c2)cc1 (stereo not given),inactive: -3.73%
22,CN(C)CCOC(=O)C(O)(c1ccccc1)C1CCCCC1 (stereo not given),inactive: 4.59%
23,CCOP(C)(=S)SCC(=O)NC(C)(CC)C(=O)O (stereo not given),inactive: -0.45%
24,CP(=O)(Nc1ccc2c(c1)OCCO2)Oc1ccccc1 (stereo not given),inactive: 15.9%
25,Cc1ccccc1NP(C)(=O)Nc1ccccc1C,inactive: 4.49%
